G9a block = blocks human histone lysine methyltransferase G9a | Q96KQ7 | G9a H3K9 monomethylation, AlphaScreen, 2 h | Potency, µM (titrated, usually from 102 µM), most hits filed as inhibitors | actives 8.8% (n = 350,000) | AID 504332; further: nearly all actives have a fitted effect of over 75% in size
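AlphaScreen detection with an anti-monomethyl H3K9 antibody quantified product after a 2 h room-temperature reaction containing 500 nM biotinylated H3K9 peptide, 20 µM SAM and 20 nM enzyme, which had been preincubated 15 min with compound.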
KDM4E inh = blocks human JMJD2E demethylase activity; AID 2147; JMJD2E catalytic domain, FDH-coupled NADH fluorescence (FDH is formaldehyde dehydrogenase); actives 1.6% (n = 230,000); Potency, µM (titrated, usually from 57.1 µM), actives largely listed as inhibitors; active means well fitted inhibition curve with a large enough effect, not every such curve was filed as active; inconclusive means small, poorly fitted or top-dose-only effect, or another doubt; inactive means no such curve, though single readings can be large or run the other way; further: nearly all actives have a fitted effect of over 50% in size
miR-21 reporter = miR-21 reporter, rising signal | HeLa miR-21 FLuc reporter, luciferase, 48 h | Potency, µM (doses to about 38.3 µM) | 340,000 tested, under 10 active | AID 2288; active = well fitted rising curve with a large enough effect; inconclusive = small, poorly fitted or top-dose-only effect; inactive = no such curve, though single readings can be large or run the other way;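 note: miR-21 action dims this reporter so a rising signal means less miR-21 action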
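HeLa cells stably expressing CMV-driven firefly luciferase with a downstream miR-21 binding sequence, endogenously expressing miR-21, were treated with titrations (up to about 40uM final) for 48 hours at 37 degree Celsius. Luciferase luminescence was read after lysis.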
Sfp inh = inhibitors of Bacillus subtilis Sfp phosphopantetheinyl transferase | Q9F4F7 | Biochemical Sfp PPTase activity, qHTS | Potency, µM, usual class: inhibitors | actives 3.5% (n = 310,000) | AID 1490;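 further: the enzyme is Sfp with the accession as filed and its product quenches rhodamine fluorescence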
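Sfp 15 nM + cpd, 15 min RT; start w/ rhodamine-CoA 5 uM, BHQ-2-YbbR 12.5 uM (final); 50 mM Hepes pH 7.6, 10 mM MgCl2, 0.01% NP-40, 0.01% BSA; read 525/598 nm at 0 and 30 min.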
ALDH1A1 block = ALDH1A1 (human) enzyme inhibition; Purified ALDH1A1, NADH fluorescence, propionaldehyde substrate; Potency, µM (titrated, usually from 75.3 µM), most hits filed as inhibitors; actives 7.3% (n = 220,000); active means well fitted inhibition curve with a large enough effect, not every such curve was filed as active; inconclusive means small, poorly fitted or top-dose-only effect, or another doubt; inactive means no such curve, though single readings can be large or run the other way
LMNA splice mod = changes lamin A minigene splicing in HeLa cells; HeLa LMNA splicing GFP/RFP minigene ratio, 48 h; Potency, µM (doses to about 46.1 µM), actives largely listed as inhibitors; actives 0.01% (n = 200,000); active means well fitted inhibition curve with a large enough effect in the signal ratio, with a control signal flat, not every such curve was filed as active; inconclusive means small, poorly fitted or top-dose-only effect, or effect the other way, or a change in a side signal; the % refers to the signal ratio
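S3 HeLa stable clones carrying a lamin A-EGFP splicing minigene plus DsRed2 were seeded at 600 cells/well in Opti-MEM with 2% FBS, pin-dosed and incubated 48 h at 37°C. Acumen cytometry (488 nm) gave the GFP/RFP total-intensity ratio.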
Hits are given with their value; – = inactive; ? = inconclusive; · = no result; [ ] = another dose, or the depositor's remark. The list is not random: actives were taken first. Their share in the collection is about 13%. Unless noted, the call rests on the fitted dose curve; in most records, active means well fitted curve in the direction sought with a large enough effect; inconclusive means small, poorly fitted or top-dose-only effect, or another doubt; inactive means no such curve, though single readings can be large; an effect the other way counts as inactive or inconclusive.

SMILES	G9a block	KDM4E inh	miR-21 reporter	Sfp inh	ALDH1A1 block	LMNA splice mod
Cc1ccc(S(=O)(=O)Nc2c(O)c3ccccc3oc2=O)cc1	28µM	·	–	–	·	·
Cc1[nH]c2ccccc2c1C(=O)CSc1nc2ccccc2c(=O)n1-c1ccccc1F	–	–	–	–	0.56µM	–
C/C(N)=C(/C#N)C(=O)CSc1nc2scc(-c3ccccc3)c2c(=O)n1C	–	–	–	–	5.6µM	?
CCOC(=O)c1c(C)[nH]c(C)c1C(=O)CSc1nc2ccccc2c(=O)n1-c1ccc(Cl)cc1	–	?	–	–	?	?
C/C(N)=C(/C#N)C(=O)CSc1nc2ccccc2c(=O)n1-c1ccccc1C	–	–	–	–	28µM	–
CS(=O)(=O)N(Cc1ccccc1)c1ccc(C(=O)Nc2ccc(Cl)cc2)cc1	–	·	–	·	·	·
O=c1/c(=C/c2ccc(O)c([N+](=O)[O-])c2)sc2nc3ccccc3n12	?	–	–	–	–	·
Cc1cc(C)c2nc3s/c(=C/c4ccccc4)c(=O)n3c2c1	1.3µM	–	–	8.9µM	3.2µM	–
Cc1ccc2c(nc3s/c(=C/c4cccs4)c(=O)n32)c1C	7.9µM	–	–	–	14µM	?
O=C(O)c1ccc(-c2ccc(/C=c3/sc4nc5ccccc5n4c3=O)o2)cc1Cl	5µM	·	–	50µM	·	·
Cc1ccc2c(nc3s/c(=C\c4ccc(-c5ccccc5C(=O)O)o4)c(=O)n32)c1C	18µM	·	–	–	·	·
Cc1c(C(=O)O)cccc1-c1ccc(C=O)o1	?	–	–	–	?	–
Cc1cc(C)n2nc(CNC(=O)c3cccc(N(C)C)c3)nc2n1	–	·	–	·	·	·
COc1ccc(S(=O)(=O)N2CCOCC2)cc1NC(=O)c1ccc(OC(F)F)cc1	–	·	·	·	·	·
CC1C(=O)N2CCCc3cc(S(=O)(=O)NCc4ccccc4Cl)cc1c32 (stereo not given)	–	·	–	–	·	·
Cc1cccc(C)c1Nc1sc(C(=O)c2ccccc2)c(N)c1C(=O)Nc1ccc(F)cc1	?	·	–	·	·	–
C[C@@H]1CCCN(C[C@@H](O)CN2CCCc3ccccc32)C1	·	·	·	·	–[13.5 µM]	·
CN(C)c1ccc(CNCC2CCCO2)cc1 (stereo not given)	?	·	–	–	·	·
CN(C)c1ccc(CNCCC2CCOC(C)(C)C2)cc1 (stereo not given)	45µM	–	–	–	?	–
Cc1ccc(C2=Nc3ccccc3N(CC(=O)Nc3ccccc3C)C(=O)C2)cc1C	–	·	–	·	·	–
COc1ccc(/C=C(/C(=O)c2ccc(Cl)cc2Cl)n2cncn2)cc1	–	–	–	–	8.9µM	?
O=C(OCn1cncn1)c1ccc(Cl)cc1Cl	?	–	–	–	–	–
CC(C)CC(=O)/C(=C/c1ccc(N(C)C)cc1)n1cncn1	–[2.33 µM]	·	–	–	·	·
CN(C)c1ccc(/C=C(/C(=O)c2ccc(Cl)cc2Cl)n2cncn2)cc1	–	–	–	–	1.1µM	?
CC(C)CC(=O)/C(=C\c1ccc(Cl)cc1Cl)n1cncn1	79µM	–	?	32µM	22µM	?
SMILES	G9a block	KDM4E inh	miR-21 reporter	Sfp inh	ALDH1A1 block	LMNA splice mod
CN(C)/C=C(/C(=O)c1ccc(Cl)cc1)n1cncn1	–	–	–	–	–	–
CCOc1ccc(S(=O)(=O)Nc2ccccc2C(=O)N2CCOCC2)cc1	–	·	–	–	·	·
Cc1ccc(C(=O)c2c(C)oc3c2C(=O)C(=O)c2ccccc2-3)cc1	?	–	?	50µM	20µM	?
Cc1ccc(C(=O)c2coc3c2C(=O)C(=O)c2ccccc2-3)cc1	40µM	?	–	45µM	20µM	?
Cc1ccc(C)c(NC(=O)CN2C(=O)c3cccnc3Oc3ccc(C)cc32)c1	–	·	–	·	·	–
COc1ccc(CCNC(=O)C(=O)NCC(c2ccco2)S(=O)(=O)c2ccccc2)cc1OC (stereo not given)	–	·	–	·	·	–
CCNC(=O)Oc1ccc[nH]c1=O	–[2.33 µM]	?	–	25µM	·	·
O=C(O)[C@@H]1CSCN1	–[12.7 µM]	·	·	56µM	·	·
CCOC1=C/C(=C/c2c(N)n3nc(CC(=O)N4CCCC4)sc3nc2=O)C=CC1=O	79µM	·	–	–	·	·
Nc1c(C=C2C=CC(=O)C=C2)c(=O)nc2sc(CC(=O)N3CCCCC3)nn12	?	·	–	–	·	·
